According to PubChem BioAssay (Tox21):
“And” between values parts separate entries of the source, which are not always exact repeats. Equal entries are not always repeated. This is a selection; strong and weak results do not stand in their true shares. Inconclusive results are not listed. The source made the active and inactive calls. Calls come from the whole dose curve; as a rule, active = well fitted activation curve with a large enough effect in the signal ratio in the repeat runs (not every such curve was filed as active); inconclusive = weak or mixed curves; inactive = flat fitted curve, though single readings scatter; the % refers to the signal ratio.

Experiment: qHTS assay to identify small molecule agonists of H2AX (AID 1224845)
Conditions: CHO-K1 phospho-H2AX Ser139 HTRF, 3 h; at 70.9 µM (top of the series)
Text: National Center for Advancing Translational Sciences [NCATS]
NIH Chemical Genomics Center [NCGC]
U.S. Environmental Protection Agency [EPA]
National Institutes of Environmental Health Sciences [NIEHS]
National Toxicology Program [NTP]
U.S. Food and Drug Administration [FDA]
HTRF phospho-H2AX (Ser139) assay (Cisbio Bioassays, US) enables the quantitative detection of the histone variant H2AX when phosphorylated on serine 139. When double-stranded DNA breaks, either by ionizing radiation or endogenous physiological processes, H2AX becomes phosphorylated at Ser139. This phospho-Ser139 serves as a sensitive biomarker for the detection of such breaks, localizing the site of DNA repair. So, HTRF phospho-H2AX Ser139 is a pertinent assay to study genome stability, the cell cycle, DNA repair, and it serves as a biomarker for cancer, and to understand aging. Wild type CHO-K1 cells were used to identify the inducers of Phospho-H2AX Ser 139 from the Tox21 10K compound collections.
Tox21 Assay Protocol Summary:
The CHO-K1 cells suspended in culture medium containing 10% FBS were dispensed at 1000 cells/ 3 ul/well in 1536-well white wall/solid bottom plates (Greiner Bio-One North America, NC) using a Multidrop Combi (Thermo Fisher Scientific Inc., Waltham, MA). After the assay plates were incubated at 37C overnight, 23 nl of compounds at 15 concentrations (from 5-48 columns) or positive control (from 1 to 4 columns) were transferred to the assay plates using a Pintool station (Wako, San Diego, CA) into each well resulting in a final DMSO concentration of 0.76%. After 3hr incubation at 37C, 1 uL/well Supplemented Lysis buffer (diluted 100 fold blocking reagent in lysis buffer) (HTRF Phospho-H2A.X (S139) Assay kit from Cisbio US Inc., Bedford, MA) was added using a Flying Reagent Dispenser (FRD) (Aurora Discovery, CA). After 10sec spin at 1000 rpm in a plate centrifuge, the assay plates were incubated at room temperature for 30 min. Then followed by the addition of 1 uL/well detection buffer (containing a mixture of two antibodies, one labeled with cryptate, Anti pH2AX (S139)-K and another labeled with d2, Anti H2AX-d2) using FRD. After incubation at room temperature for 24 hr, the time resolved fluorescence at excitation 320 nm and emissions at 665 nm and 620 nm was measured using an Envision plate reader (PerkinElmer, Waltham, MA).
% is set by controls: 0 for no effect and ±100 for the full control effect.

| SMILES | activation (H2AX phosphorylation) |
| --- | --- |
| OCCSCCO | inactive: -0.34% |
| Cc1cccc([N+](=O)[O-])c1[N+](=O)[O-] | inactive: -0.664% |
| CCOP(=O)(CC)Oc1ccc([N+](=O)[O-])cc1 (stereo not given) | inactive: 0.0878% |

Same assay, conditions: CHO-K1 phospho-H2AX Ser139 HTRF, 3 h; at 154 µM (top of the series)

| SMILES | activation (H2AX phosphorylation) |
| --- | --- |
| Cc1ccc([N+](=O)[O-])cc1[N+](=O)[O-] | inactive: 0.454% |
| N=C(N)N[N+](=O)[O-] | inactive: 6.2% |
| CC(C)OP(C)(=O)OC(C)C | inactive: -1.19% and inactive: -0.0023% |
| O=[N+]([O-])c1cccc([N+](=O)[O-])c1 | inactive: 2.84% |
| CN(C)CCCl | inactive: 4.58% |
| [NH4+].[O-][Cl+3]([O-])([O-])[O-] | inactive: -0.292% and inactive: -0.17% |
| OCCSCCO | inactive: -1.6% |
| COc1ccc([N+](=O)[O-])cc1[N+](=O)[O-] | inactive: -3.94% |
| Cc1c([N+](=O)[O-])cccc1[N+](=O)[O-] | inactive: -2.33% and inactive: -2.44% |
| N#CBr | inactive: -0.562% |
| COP(C)(=O)OC | inactive: -1.28% and inactive: 0.66% |
| O=[N+]([O-])[O-].[NH4+] | inactive: -0.339% and inactive: -0.181% |
| CC(C)N(CCO)C(C)C | inactive: -1.87% |
| CCOP(=O)(CC)OCC | inactive: -2.4% |
| O=[N+]([O-])OCC(CO[N+](=O)[O-])(CO[N+](=O)[O-])CO[N+](=O)[O-] | inactive: -1.15% |
| CP(=O)(O)OCCC[Si](O)(O)O | inactive: 0.0567% |
| Cc1ccc([N+](=O)[O-])c([N+](=O)[O-])c1 | inactive: 2.28% |
